Test results as given in publication PMC7758436, “Licochalcone a Exhibits Leishmanicidal Activity in vitro and in Experimental Model of Leishmania (Leishmania) Infantum” (Frontiers in Veterinary Science, 2020).

Tested on: amastigote forms of L. (L.) infantum
Test: In vitro leishmanicidal activity against intracellular amastigote forms in peritoneal murine macrophages (Giemsa, parasite load)
Assay type: cell-based, Leishmania (Leishmania) infantum
Details: CC50/IC50, intracellular amastigotes vs peritoneal murine macrophages
Experimental: L. (L.) amazonensis (IFLA/BR/67/PH8.) was maintained as promastigote forms in Roswell Park Memorial Institute medium (RPMI 1640 medium) (Gibco, Grand Island, NY, USA), supplemented with antibiotics (penicillin 10.000 UI/mL and streptomycin […]) (Cultilab, Campinas, BR), and 10% bovine fetal serum (FBS) (Cultilab), at 25°C. L. (L.) infantum (MHOM/BR/1972/LD) was maintained as promastigote forms in M199 medium (Gibco), supplemented with 10% FBS (Cultilab), antibiotics (Cultilab), 5% human urine and 0.25% hemin (Sigma-Aldrich) at 25°C, and amastigote forms were obtained from the spleen of golden hamsters after 60 to 70 days of infection ([21]). Peritoneal murine macrophages were obtained by washing the peritoneal cavity of BALB/c mice with RPMI 1640 medium (Gibco) after 72 h of the application of 5 mL of the sodium thioglycolate (Sigma-Aldrich) at 3%, and then were cultivated in RPMI 1640 medium (Gibco) supplemented with antibiotics and 10% FBS (Gibco), at 37°C in a 5% CO2 humidified incubator.
Initially, a screening was performed against promastigote forms of L. (L.) amanzonensis. […] The slides were stained with Giemsa (Synth, Diadema, BR), analyzed using an optical microscopy (Nikon), and the parasite load was defined by the number of infected macrophages X number of intracellular amastigotes/number of total macrophages ([23]). […]

C=CC(C)(C)c1cc(/C=C/C(=O)c2ccc(O)cc2)c(OC)cc1O [LicoA (1), Licochalcone A]
selectivity index (SI) to L. (L) infantum: 4.16
